The values that follow come from patent EP4603105A1, “PHARMACEUTICAL COMPOSITION CONTAINING CYCLIC COMPOUND HAVING SELECTIVE KRAS INHIBITORY EFFECT AGAINST HRAS AND NRAS” (CHUGAI SEIYAKU KABUSHIKI KAISHA, priority 2022, dated 2024).

Sequences of proteins named here, by UniProt entry; tags and fusion partners are left off.
UniProt P01112, whole entry: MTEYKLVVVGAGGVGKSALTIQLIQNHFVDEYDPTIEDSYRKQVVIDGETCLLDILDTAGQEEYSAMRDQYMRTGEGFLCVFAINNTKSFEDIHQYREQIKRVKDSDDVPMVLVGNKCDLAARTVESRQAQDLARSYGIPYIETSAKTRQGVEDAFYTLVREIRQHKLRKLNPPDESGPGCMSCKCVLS

The first experiment deals with HRAS wild-type protein (Homo sapiens, UniProt P01112). Nature of the experiment: Binding to HRAS by surface plasmon resonance (SPR), KD and KD ratio to KRAS. Conditions: ratio of KD for HRAS wild-type protein to KD for KRAS. (In general: SPR reads the build-up and loss of mass on a sensor chip optically.)
Turning to `CCCOCC1C(=O)NC(C(C)CC)C(=O)N(C)CC(=O)N(C)C2CC=CCCN(C2=O)C(Cc2ccc(C)cc2)C(=O)N(C)CC(=O)NC(CCc2ccc(C(F)(F)F)c(Cl)c2)C(=O)N2CC(OCC)CC2C(=O)NC2(CC(C)(C)C2)C(=O)N(C)C(C2CCCC2)C(=O)N(C)C(C(=O)N(C)CC)CC(=O)N1C` (stereo not shown), the “HRAS /KRAS” value was “B (a compound having 3 or more and less than 10 is denoted as B)”.
Turning to `CCCOC[C@H]1C(=O)N[C@@H]([C@@H](C)CC)C(=O)N2CCC[C@H]2C(=O)N(C)[C@H]2C/C=C\CCN(C2=O)[C@@H](Cc2ccc(C)cc2)C(=O)N(C)CC(=O)N[C@@H](CCc2ccc(C(F)(F)F)c(OC)c2)C(=O)N2C[C@@H](C)C[C@H]2C(=O)NC2(CC(C)(C)C2)C(=O)N(C)[C@@H](C2CCCC2)C(=O)N(C)[C@H](C(=O)N(C)CC)CC(=O)N1C`, the “HRAS /KRAS” value was “B (a compound having 3 or more and less than 10 is denoted as B)”.
As for `CCOCC1C(=O)NC(C(C)CC)C(=O)N(C2CC2)CC(=O)N(C)C2CC=CCCN(C2=O)C(CC2CCCCC2)C(=O)N(C)CC(=O)NC(CCc2ccc(C(F)(F)F)c(OC)c2)C(=O)N2CC(C)CC2C(=O)N(C)C2(CCC2)C(=O)N(C)C(C2CCCC2)C(=O)N(C)C(C(=O)N(C)C)CC(=O)N1C` (stereo not shown), the “HRAS /KRAS” value is “A (a compound having 10 or more and less than 20 is denoted as A)”.
Consider `CCO[C@@H]1C[C@H]2C(=O)NC3(CC(C)(C)C3)C(=O)N(C)[C@@H](C3CCCC3)C(=O)N(C)[C@H](C(=O)N(C)CC)CC(=O)N(C)[C@@H](COC)C(=O)N[C@@H]([C@@H](C)CC)C(=O)N(C)CC(=O)N(C)[C@H]3C/C=C\CCN(C3=O)[C@@H](Cc3ccc(C)cc3)C(=O)N(C)CC(=O)N[C@@H](CCc3ccc(C(F)(F)F)c(OC)c3)C(=O)N2C1`, for which the “HRAS /KRAS” value was “A (a compound having 10 or more and less than 20 is denoted as A)”.
Take `CCC[C@H]1C(=O)N[C@@H]([C@@H](C)CC)C(=O)N(C)CC(=O)N(C)[C@H]2C/C=C\CCN(C2=O)[C@@H](CC2CCC(F)(F)CC2)C(=O)N(C)CC(=O)N[C@@H](CCc2ccc(C(F)(F)F)c(OC)c2)C(=O)N2C[C@@H](C)C[C@H]2C(=O)N(C)C2(CCC2)C(=O)N(C)[C@@H](C2CCCC2)C(=O)N(C)[C@H](C(=O)N(C)C)CC(=O)N1C`: the “HRAS /KRAS” value is “A (a compound having 10 or more and less than 20 is denoted as A)”.
In the case of `CCO[C@@H]1C[C@H]2C(=O)NC3(CC(C)(C)C3)C(=O)N(C)[C@@H](C(CC)CC)C(=O)N(C)[C@H](C(=O)N(C)C)CC(=O)N(C)[C@@H](COC)C(=O)N[C@@H]([C@@H](C)CC)C(=O)N(C)CC(=O)N(C)[C@H]3C/C=C\CCN(C3=O)[C@@H](CC3CCCCC3)C(=O)N(C)CC(=O)N[C@@H](CCc3ccc(C(F)(F)F)c(OC)c3)C(=O)N2C1`, the “HRAS /KRAS” value was “A (a compound having 10 or more and less than 20 is denoted as A)”.
Take `CCO[C@@H]1C[C@H]2C(=O)NC3(CC(C)(C)C3)C(=O)N(C)[C@@H](C3CCCC3)C(=O)N(C)[C@H](C(=O)N(CC)CC)CC(=O)N(C)[C@@H](COC)C(=O)N[C@@H]([C@@H](C)CC)C(=O)N(C)CC(=O)N(C)[C@H]3C/C=C\CCN(C3=O)[C@@H](Cc3ccc(C)cc3)C(=O)N(C)CC(=O)N[C@@H](CCc3ccc(C(F)(F)F)c(OC)c3)C(=O)N2C1`: the “HRAS /KRAS” value is “A (a compound having 10 or more and less than 20 is denoted as A)”.

The same experiment, now with this note: ratio of KD with respect to HRAS wild-type protein to KD with respect to KRAS.
For the molecule `CC[C@H](C)[C@@H]1NC(=O)[C@H](CC)N(C)C(=O)C[C@@H](C(=O)N(C)C)N(C)C(=O)[C@H](C2CCCC2)N(C)C(=O)C2(CCC2)NC(=O)[C@@H]2CCCCN2C(=O)[C@H](CCc2cc(F)c(C(F)(F)F)c(F)c2)NC(=O)CN(C)C(=O)[C@H](Cc2ccc(C(F)(F)F)cc2)N2CC/C=C\C[C@@H](C2=O)N(C)C(=O)CN(C)C1=O`, the “HRAS /KRAS” value was “A (a compound having 10 or more and less than 20 is denoted as A)”.
With `CCOC1CC2C(=O)NC3(CCC3)C(=O)N(C)C(C3CCCC3)C(=O)N(C)C(C(=O)N(C)C)CC(=O)N(C)C(Cc3cccs3)C(=O)NC(C(C)CC)C(=O)N(C)CC(=O)N(C)C3CCCCCN(C3=O)C(Cc3ccc(F)cc3)C(=O)N(C)CC(=O)NC(CCc3cc(F)c(C(F)(F)F)c(F)c3)C(=O)N2C1` (stereo not shown), the “HRAS /KRAS” value is “B (a compound having 3 or more and less than 10 is denoted as B)”.
As for `CCC[C@H]1C(=O)N[C@@H]([C@@H](C)CC)C(=O)N(C)CC(=O)N(C)[C@H]2C/C=C\CCN(C2=O)[C@@H](Cc2ccc(C(F)(F)F)cc2)C(=O)N(C)CC(=O)N[C@@H](CCc2cc(F)c(C(F)(F)F)c(F)c2)C(=O)N2C[C@H](OCC)C[C@H]2C(=O)NC2(CCC2)C(=O)N(C)[C@@H](C2CCCC2)C(=O)N(C)[C@H](C(=O)N2CCCCC2)CC(=O)N1C`, the “HRAS /KRAS” value was “A (a compound having 10 or more and less than 20 is denoted as A)”.
On to `CCO[C@@H]1C[C@H]2C(=O)NC3(CCC3)C(=O)N(C)[C@@H](C3CCCC3)C(=O)N(C)[C@H](C(=O)N3CCOCC3)CC(=O)N(C)[C@@H](CC3CC3)C(=O)N[C@@H]([C@@H](C)CC)C(=O)N(C)CC(=O)N(C)[C@H]3C/C=C\CCN(C3=O)[C@@H](Cc3ccc(C(F)(F)F)cc3)C(=O)N(C)CC(=O)N[C@@H](CCc3cc(F)c(C(F)(F)F)c(F)c3)C(=O)N2C1`, for which the “HRAS /KRAS” value is “A (a compound having 10 or more and less than 20 is denoted as A)”.
Regarding `CCO[C@@H]1C[C@H]2C(=O)NC3(CCC3)C(=O)N(C)[C@@H](C3CCCC3)C(=O)N(C)[C@H](C(=O)N(C)C)CC(=O)N(C)[C@@H](CC3CC3)C(=O)N[C@@H]([C@@H](C)CC)C(=O)N(C)CC(=O)N(C)[C@H]3CCCCCN(C3=O)[C@@H](Cc3ccc(F)cc3)C(=O)N(C)CC(=O)N[C@@H](CCc3cc(F)c(C(F)(F)F)c(F)c3)C(=O)N2C1`, the “HRAS /KRAS” value was “A (a compound having 10 or more and less than 20 is denoted as A)”.
As to `CCO[C@@H]1C[C@H]2C(=O)NC3(CCCC3)C(=O)N(C)[C@@H](C3CCCC3)C(=O)N(C)[C@H](C(=O)N(C)C)CC(=O)N(C)[C@@H](C)C(=O)N[C@@H]([C@@H](C)CC)C(=O)N(C)CC(=O)N(C)[C@H]3C/C=C\CCN(C3=O)[C@@H](CC3CCCCC3)C(=O)N(C)CC(=O)N[C@@H](CCc3cc(F)c(C(F)(F)F)c(F)c3)C(=O)N2C1`, the “HRAS /KRAS” value is “A (a compound having 10 or more and less than 20 is denoted as A)”.
For `CCO[C@@H]1C[C@H]2C(=O)NC3(CCC3)C(=O)N(C)[C@@H](C(CC)CC)C(=O)N(C)[C@H](C(=O)N(C)C)CC(=O)N(C)[C@@H](CC(C)C)C(=O)N[C@@H]([C@@H](C)CC)C(=O)N(C)CC(=O)N(C)[C@H]3C/C=C\CCN(C3=O)[C@@H](CC3CCC(F)(F)CC3)C(=O)N(C)CC(=O)N[C@@H](CCc3cc(F)c(C(F)(F)F)c(F)c3)C(=O)N2C1`, the “HRAS /KRAS” value was “A (a compound having 10 or more and less than 20 is denoted as A)”.
The same measure, in the same setting: the value for `CCO[C@@H]1C[C@H]2C(=O)NC3(CCC3)C(=O)N(C)[C@@H](C3CCCC3)C(=O)N(C)[C@H](C(=O)N(C)C)CC(=O)N(C)[C@@H](CC)C(=O)N[C@@H]([C@@H](C)CC)C(=O)N(C)CC(=O)N(C)[C@H]3C/C=C\CCN(C3=O)[C@@H](Cc3ccc(C(F)(F)F)cc3)C(=O)N(C)CC(=O)N[C@@H](CCc3ccc(C(F)(F)F)c(OC)c3)C(=O)N2C1` was “A (a compound having 10 or more and less than 20 is denoted as A)”; that for `CC[C@H](C)[C@@H]1NC(=O)[C@H](CC)N(C)C(=O)C[C@@H](C(=O)N(C)C)N(C)C(=O)[C@H](C2CCCC2)N(C)C(=O)C2(CCC2)NC(=O)[C@@H]2CC(F)(F)CN2C(=O)[C@H](CCc2cc(F)c(C(F)(F)F)c(F)c2)NC(=O)CN(C)C(=O)[C@H](CC2CCC(F)(F)CC2)N2CC/C=C\C[C@@H](C2=O)N(C)C(=O)CN(C)C1=O` was “A (a compound having 10 or more and less than 20 is denoted as A)”; that for `CCO[C@@H]1C[C@H]2C(=O)NC3(CCC3)C(=O)N(C)[C@@H](C(CC)CC)C(=O)N(C)[C@H](C(=O)N(C)C)CC(=O)N(C)[C@@H](COC)C(=O)N[C@@H]([C@@H](C)CC)C(=O)N(C)CC(=O)N(C)[C@H]3C/C=C\CCN(C3=O)[C@@H](Cc3ccc(C(F)(F)F)cc3)C(=O)N(C)CC(=O)N[C@@H](CCc3ccc(C(F)(F)F)c(OC)c3)C(=O)N2C1` was “A (a compound having 10 or more and less than 20 is denoted as A)”.
For the molecule `CCO[C@@H]1C[C@H]2C(=O)NC3(CCC3)C(=O)N(C)[C@@H](C3CCCC3)C(=O)N(C)[C@H](C(=O)N3CCOCC3)CC(=O)N(C)[C@@H](Cc3ccccc3C#N)C(=O)N[C@@H]([C@@H](C)CC)C(=O)N(C)CC(=O)N(C)[C@H]3CCCCCN(C3=O)[C@@H](Cc3ccc(C(F)(F)F)cc3)C(=O)N(C)CC(=O)N[C@@H](CCc3cc(F)c(C(F)(F)F)c(F)c3)C(=O)N2C1`, the “HRAS /KRAS” value was “B (a compound having 3 or more and less than 10 is denoted as B)”.
Take `CCO[C@@H]1C[C@H]2C(=O)NC3(CCC3)C(=O)N(C)[C@@H](C(CC)CC)C(=O)N(C)[C@H](C(=O)N(C)C)CC(=O)N(C)[C@@H](COC)C(=O)N[C@@H]([C@@H](C)CC)C(=O)N(C)CC(=O)N(C)[C@H]3C/C=C\CCN(C3=O)[C@@H](Cc3ccc(C(F)(F)F)cc3)C(=O)N(C)CC(=O)N[C@@H](CCc3ccc4sccc4c3)C(=O)N2C1`: the “HRAS /KRAS” value is “A (a compound having 10 or more and less than 20 is denoted as A)”.
Same read-out and setting: the value for `CCO[C@@H]1C[C@H]2C(=O)NC3(CCC3)C(=O)N(C)[C@@H](C3CCCC3)C(=O)N(C)[C@H](C(=O)N(C)C)CC(=O)N(C)[C@@H](CC)C(=O)N[C@@H](C(C)C)C(=O)N(C)CC(=O)N(C)[C@H]3C/C=C\CCN(C3=O)[C@@H](Cc3ccc(C(F)(F)F)cc3)C(=O)N(C)CC(=O)N[C@@H](CCc3cc(F)c(C(F)(F)F)c(F)c3)C(=O)N2C1` was “B (a compound having 3 or more and less than 10 is denoted as B)”; that for `CC[C@H](C)[C@@H]1NC(=O)[C@H](CC)N(C)C(=O)C[C@@H](C(=O)N2CCOCC2)N(C)C(=O)[C@H](C2CCCC2)N(C)C(=O)C2(CCC2)NC(=O)[C@@H]2CCCN2C(=O)[C@H](CCc2ccc(C(F)(F)F)c(Cl)c2)NC(=O)CN(C)C(=O)[C@H](Cc2ccc(C(F)(F)F)cc2)N2C[C@H](C)CC[C@@H](C2=O)N(C)C(=O)CN(C)C1=O` was “B (a compound having 3 or more and less than 10 is denoted as B)”; that for `CCO[C@@H]1C[C@H]2C(=O)NC3(CCC3)C(=O)N(C)[C@@H](C3CCCC3)C(=O)N(C)[C@H](C(=O)N(C)C)CC(=O)N(C)[C@@H](CC3CC3)C(=O)N[C@@H]([C@@H](C)CC)C(=O)N(C)CC(=O)N(C)[C@H]3C/C=C\CCN(C3=O)[C@@H](Cc3ccc(F)cc3C)C(=O)N(C)CC(=O)N[C@@H](CCc3cc(F)c(Cl)c(F)c3)C(=O)N2C1` was “B (a compound having 3 or more and less than 10 is denoted as B)”.
